This is one part of the list. Entries with a potency or affinity are not part of this list. Activity calls are given as the source filed them. Rule as the data show it: active = inhibition above about 50%; inactive = the rest.

The chains behind the UniProt entries cited, without tags or fusion partners. Where a name states a change or a piece, a line headed by the entry shows the natural chain unless it says otherwise.
UniProt P41145: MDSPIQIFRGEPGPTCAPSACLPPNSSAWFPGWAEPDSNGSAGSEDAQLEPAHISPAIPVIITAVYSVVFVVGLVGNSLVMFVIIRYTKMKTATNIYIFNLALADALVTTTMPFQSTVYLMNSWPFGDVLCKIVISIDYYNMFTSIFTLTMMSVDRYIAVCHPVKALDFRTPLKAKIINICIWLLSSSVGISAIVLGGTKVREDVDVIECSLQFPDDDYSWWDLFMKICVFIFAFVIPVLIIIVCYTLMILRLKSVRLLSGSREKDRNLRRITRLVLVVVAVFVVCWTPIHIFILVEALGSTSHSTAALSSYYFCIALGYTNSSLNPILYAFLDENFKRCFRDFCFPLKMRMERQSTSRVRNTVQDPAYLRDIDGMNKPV

This passage reports inhibition results from PubChem BioAssay AID1778 (Sanford-Burnham Center for Chemical Genomics, 2009).

The assay deals with Kappa-type opioid receptor (Homo sapiens) (UniProt P41145). Nature of the assay: KOR antagonists, beta-arrestin recruitment, cell-based, luminescence, uHTS (AID 1778). The note with it: antagonist mode, at 10 µM, hits give high values.
The term inhibition denotes the drop in the measured response relative to a control, in per cent. Turning to `CCc1cccc(C)c1NC(=O)Cn1c(NCCO)nc2ccccc21`, the inhibition is inactive: -8.3%. With `CN1CCN(C(=O)Cn2c(C(F)(F)F)nc3ccccc32)CC1`, the inhibition is inactive: 15.1%. Consider `c1ccc(Cn2c(CNc3nc4ccccc4n3CCN3CCCCC3)nc3ccccc32)cc1`, for which the inhibition is inactive: -6.1%.

Take `O=C(OC1CN2CCC1CC2)c1ccc(Cl)cc1` (stereo unspecified): the inhibition was inactive: -20.6%. Under `Cn1cccc1/C=N/NC(=O)Cn1cnc2ccccc21` stands inactive: -13%.

Consider `CCN(CC)CCn1cnc2c1c(=O)[nH]c(=O)n2Cc1ccccc1`, for which the inhibition was inactive: -2.1%.

As to `Cc1ccc(S(=O)(=O)c2nnn3c2nc(NC2CCN(Cc4ccccc4)CC2)c2ccccc23)cc1C`, the inhibition was inactive: -27.8%. Under `CN1CCC(N(C)c2nc(-c3ccccc3)nc3ccccc23)CC1` stands inactive: -34.9%.

Regarding `C[C@H](NC(=O)N1CCn2c1nc1ccccc12)C(=O)NCC1CCCO1` (stereo partly specified), the inhibition is inactive: 18.6%.

With `CC(C)C(NS(=O)(=O)c1cccc2nsnc12)C(=O)N1CCn2c1nc1ccccc12` (stereo unspecified), the inhibition is inactive: -36.2%. The result for `OCCNc1nc2ccccc2n1CCN1CCCCC1` reads inactive: 27.6%. The result for `Cc1nc2ccccc2n1CC(=O)NCCN1CCOCC1` reads inactive: 37.3%. As for `O=[As](O)(O)c1cccnc1`, the inhibition is inactive: 8.4%.

For the compound `Cn1c(=O)c2c(ncn2CC(=O)N2CCCCCC2)n(C)c1=O`, the inhibition was inactive: 14%. In the case of `O=C(Cn1cnc2ccccc21)N/N=C/c1cccnc1`, the inhibition was inactive: 8.8%. Under `CN(C)C(=O)Cn1c(=O)n(C)c2ccccc21` stands inactive: -7.3%; under `CS(=O)(=O)c1ccc(Cl)c(NC(=O)COC(=O)C(O)(c2ccccc2)c2ccccc2)c1`, inactive: -21.2%; under `C(=N\c1nc2ccccc2n1CCN1CCOCC1)/c1cccs1`, inactive: -28.7%. The result for `Cc1c(Cl)c(C(=O)Nc2nc3ccccc3n2CCN2CCCCC2)nn1C` reads inactive: 23.3%; that for `CCN(CC)CCn1cnc2c1c(=O)n(CCOC(=O)c1cc(OC)c(OC)c(OC)c1)c(=O)n2C`, inactive: 2.2%; that for `C=CCOC(=O)C1=C(C)N=C2SCCC(=O)N2C1/C=C/c1ccccc1` (stereo unspecified), inactive: -10.8%.

With `Cn1c(=O)c2c(ncn2CCN(CCO)Cc2ccccc2)n(C)c1=O`, the inhibition was inactive: 8.8%.

With `O=[As](O)(c1cccc(O)c1)c1cccc(O)c1`, the inhibition is inactive: 8.7%. The result for `COc1ccc(CNc2nc3ccccc3n2CCN2CCOCC2)cc1` reads inactive: -22.8%; that for `Cc1cccc(OCC(=O)OC2CN3CCC2CC3)c1` (stereo unspecified), inactive: -13.1%.

Consider `CCOC(=O)C1=C(C)N=C2SCCC(=O)N2[C@@H]1/C=C/c1ccccc1`, for which the inhibition is inactive: -0.5%.

For the compound `O=C(Cn1c(-c2cncs2)nc2ccccc21)NC1CCCC1`, the inhibition was inactive: 6.9%. The result for `N#CCC(=O)N1CCn2c1nc1ccccc12` reads inactive: 7.1%; that for `O=C(Cn1c(CO)nc2ccccc21)NC1CCCCCC1`, inactive: 13.4%. Under `CCN(CC)CCn1c(NCc2cc(OC)ccc2OC)nc2ccccc21` stands inactive: 17.8%; under `CCOC(=O)CSc1nc2ccccc2n1CC(=O)NC(C)(C)C`, inactive: 17.2%; under `CC(C(=O)Nc1ccccc1C(=O)O)n1c(C(F)(F)F)nc2ccccc21` (stereo unspecified), inactive: -6.7%. The result for `Cn1c(=O)c2ncn(CC(=O)NCCOc3ccccc3)c2n(C)c1=O` reads inactive: -28.6%; that for `CCc1ccc(NC(=O)Cn2c3[n+](c4c(F)c(F)ccc42)CCCCC3)cc1`, inactive: -22.5%; that for `CC(C)c1ccccc1NC(=O)Cn1c(/C=C/c2ccccc2)nc2ccccc21`, inactive: 8.8%. `CC(C)(C)NC(=O)Cn1c(-c2nonc2N)nc2ccccc21`: the inhibition is inactive: -40.6%. In the case of `COC(=O)Cn1c(=N)n(CCN2CCCCC2)c2ccccc21`, the inhibition was inactive: 9.3%. The result for `NNC(=O)Cn1cnc2ccccc21` reads inactive: 3.1%; that for `Cc1ccc2c(c1)C1CN(C)CCC1N2C(=O)c1ccccc1NS(=O)(=O)c1cccc(C(F)(F)F)c1` (stereo unspecified), inactive: -10.2%. The result for `Nc1cccc2c([As](=O)(O)O)cccc12` reads inactive: 13.2%; that for `O=C(Cn1c(CO)nc2ccccc21)NCCc1ccccc1`, inactive: 11.1%; that for `Cc1ccc(NCCc2c([N+](=O)[O-])cc([N+](=O)[O-])cc2[N+](=O)[O-])cc1`, inactive: 5.6%. For `CCCCC(=O)Nc1ccc2c(c1)nc1n2CCN(CCOC)C1`, the inhibition was inactive: 11.1%. Under `Cn1c(=O)c2c(ncn2CC(=O)Nc2cc(Cl)c(Cl)cc2Cl)n(C)c1=O` stands inactive: 12.1%; under `O=C(Cn1c(C(F)(F)F)nc2ccccc21)Nc1ccccc1N1CCOCC1`, inactive: -12.9%.

Consider `CCCOP(=S)(Nc1nc(N)cc(=O)[nH]1)OCCC`, for which the inhibition was inactive: -6.1%.

As for `O=C(CSc1nc2ccccc2n1CC(=O)N1CCOCC1)N1CCCC1`, the inhibition is inactive: 16%. For the compound `CCN(CC)CCCNC(=S)N1CCn2c(nc3ccccc32)C1`, the inhibition was inactive: -9.2%. The result for `Cn1c(=O)n(CCc2ccccc2)c(=O)c2c1nc1n2CCN1Cc1ccco1` reads inactive: 13.7%; that for `C[C@H](NC(=O)N1CCn2c1nc1ccccc12)C(=O)NCc1ccc(F)cc1`, inactive: -15.6%; that for `CSCC[C@H](NC(=O)N1CCn2c1nc1ccccc12)C(=O)N1CCCCC1`, inactive: -66.7%. Under `O=C(Cn1c(-c2ccccn2)nc2ccccc21)N/N=C/c1ccccn1` stands inactive: -9.6%; under `O=C(CCCCCNC(=O)N1CCn2c1nc1ccccc12)NCc1ccccc1Cl`, inactive: -15.1%. On to `O=C(Cn1c(NCCO)nc2ccccc21)NCC1CCCO1` (stereo unspecified), for which the inhibition is inactive: 5.3%.

For the compound `O=C(Cn1c(S(=O)(=O)Cc2ccccc2)nc2ccccc21)N1CCCCC1`, the inhibition is inactive: -12.7%.

As for `COCCN1CCn2c(nc3cc(NC(=O)c4cccs4)ccc32)C1`, the inhibition is inactive: 3.7%. The result for `Cn1c(=O)n(CC(N)=O)c2ccccc21` reads inactive: -21.1%. The result for `CCN(CC)CCn1c(NC(=O)c2ccc(Cl)cc2)nc2ccccc21` reads inactive: 8.3%.

For `COc1ccc(CNC(=O)[C@H](C)NC(=O)N2CCn3c2nc2ccccc23)cc1`, the inhibition was inactive: -45.3%. For `COc1cccc(CNC(=O)[C@H](CC(C)C)NC(=O)N2CCn3c2nc2ccccc23)c1`, the inhibition is inactive: 6.6%. Under `CCOP(=O)(Nc1cccc2ccccc12)OCC` stands inactive: -7.8%. For `COc1cccc(CNc2nc3ccccc3n2CCN2CCCCC2)c1`, the inhibition is inactive: 23.7%. The result for `O=C(Nc1ccccc1)N1CCn2c(nc3ccccc32)C1` reads inactive: -5.9%; that for `O=C(Nc1ccc2c(c1)nc1n2CCN(C2CCCCC2)C1)c1ccco1`, inactive: 14.3%. Under `O=C(CSc1nc2ccccc2n1CC(=O)N1CCCC1)Nc1ccc2c(c1)OCO2` stands inactive: 32.5%; under `Cc1ccc2c(c1)C1CN(C)CCC1N2C(=S)Nc1ccc(OC(F)F)cc1` (stereo unspecified), inactive: 0.3%. The result for `CC(=O)Nc1nc2ccccc2n1CCN(C)C` reads inactive: 16.8%; that for `c1ccc2c(c1)nc1n2CCN1`, inactive: -5.6%; that for `CC1CCC2C(=O)N(c3ccc(NC4CCN(Cc5ccccc5)CC4)c([N+](=O)[O-])c3)C(=O)C2C1` (stereo unspecified), inactive: -0.6%. Turning to `CCCC(=O)Nc1nnc(/C=C/c2ccc(OC)cc2)s1`, the inhibition was inactive: 9.1%. As to `O=C(Cn1c(-c2cscn2)nc2ccccc21)Nc1ccc2ccccc2c1`, the inhibition was inactive: 31.2%. The result for `Cn1c(=O)c2c(ncn2CC(=O)N2CCCc3ccccc32)n(C)c1=O` reads inactive: -3.4%. In the case of `COc1cccc(CNC(=O)CCCCCNC(=O)N2CCn3c2nc2ccccc23)c1`, the inhibition was inactive: -25.3%. The result for `O=P1(Nc2ccccn2)COc2ccccc2OC1` reads inactive: 26.6%; that for `Cn1c(=O)c2c(ncn2CC(=O)N/N=C/C=C/c2ccccc2[N+](=O)[O-])n(C)c1=O`, inactive: -0.4%; that for `O=C(Cn1c(SCc2ccccc2)nc2ccccc21)N1CCOCC1`, inactive: 15.3%. Under `Cc1cc(C)cc(NC(=O)Cn2c(SCc3cc(C)ccc3C)nc3ccncc32)c1` stands inactive: -13.4%; under `Cn1c(=O)c2c(ncn2CC(=O)N2CCN(c3ccc(F)cc3)CC2)n(C)c1=O`, inactive: -5.6%. For `CCCCNC(=O)CC1C(=O)N(Cc2ccccc2)C(C)c2nc3ccccc3n21` (stereo unspecified), the inhibition was inactive: -3.5%. As to `CCOP(=O)(NC(=NC(C)c1ccccc1)NC(C)c1ccccc1)OCC` (stereo unspecified), the inhibition was inactive: -0.7%. As for `O=C(Cn1c(NCCO)nc2ccccc21)NCCc1ccc(F)cc1`, the inhibition was inactive: -9%. Under `CC(NC(=O)Cn1c(NCCO)nc2ccccc21)C1CC2CCC1C2` (stereo unspecified) stands inactive: 0.2%.

As for `CCN(CC)CCn1c(NCc2cccc(OC)c2)nc2ccccc21`, the inhibition was inactive: -45.5%. The result for `CCOc1ccc(N2CCn3c2nc2c3c(=O)n(CCc3ccccc3)c(=O)n2C)cc1` reads inactive: 30.5%; that for `CCOC(=O)c1ccc(NC(=O)Cn2cnc3cc(C)c(C)cc32)cc1`, inactive: -13.8%.

For `Cc1ccc(-c2nc(N(C)C3CCN(C)CC3)c3ccccc3n2)cc1`, the inhibition was inactive: -23.5%. Turning to `CC(c1ccccc1)N1CCn2c(nc3cc(NC(=O)NC4CCCCC4)ccc32)C1` (stereo unspecified), the inhibition was inactive: -16.6%. The result for `CC(C)NC(=O)CSc1nc2ccccc2n1CC(=O)N1CCc2ccccc21` reads inactive: -2.3%; that for `Cn1c(=O)oc2cc(S(=O)(=O)N3CCCC(C(=O)N4CCn5c4nc4ccccc45)C3)ccc21` (stereo unspecified), inactive: 0.6%. Regarding `CN(C)C1(c2nnnn2CCOC(=O)Nc2ccc(Cl)cc2)CCCCC1`, the inhibition was inactive: 18.5%. For `CNC(=O)Cn1c(=O)n(C)c2ccccc21`, the inhibition is inactive: 5.6%. On to `CC1c2nc3ccccc3n2C(CC(=O)NC2CC2)C(=O)N1Cc1ccccc1` (stereo unspecified), for which the inhibition is inactive: 8.6%. The result for `CCN1C(=O)CC(N2CCC(Nc3ccc(F)cc3)CC2)C1=O` (stereo unspecified) reads inactive: 37%.

Regarding `CCOP(=O)(Nc1ccc(C)cn1)OCC`, the inhibition was inactive: 21.2%. With `Cc1ccc2c(c1)C1CN(C)CCC1N2C(=S)Nc1cccnc1` (stereo unspecified), the inhibition is inactive: 29.2%.

As to `N#CCC(=O)N/N=C\c1ccc(OC/C=C/c2ccccc2)cc1`, the inhibition was inactive: 6.2%.
